UUG fidelity: modulators of start codon recognition fidelity in yeast; AID 602363; activity score, % at 18.7 µM; S. cerevisiae UUG-firefly luciferase reporter, luminescence/redox ratio; actives 0.13% (n = 350,000);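 active = replicate mean at a twofold rise or more, about +100% in these data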;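 note: firefly luciferase made from a UUG start codon reports start codon fidelity; reporter light over untreated wells divided by growth signal over untreated wells; some hits fall short of that in this replicate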
ARNT TACC3 PPI: ARNT/TACC3 interaction disruption. Q9Y6A5. AlphaScreen His-ARNT PAS-B/GST-TACC3 binding, luminescence; TACC3 fragment carries E629A point mutation. inhibition, % at 9.99 µM. actives 0.66% (n = 390,000). AID 623870;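 active = mean inhibition of replicates at least 50% and at least half of replicates each reaching 50%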;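 also: 0% = complete ARNT plus TACC3 wells and 100% = ARNT alone without TACC3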
ERp5 inh: inhibitors of human ERp5; Q15084; ERp5 insulin aggregation, absorbance 650 nm, 90 min; inhibition, % at 9.99 µM; actives 0.05% (n = 350,000);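 active = mean replicate inhibition above about 25%, with every replicate also reaching it, limit read from the data, passing the limit was not always enough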
PDI inh: blocks human protein disulfide isomerase activity; AID 588391; inhibition, % at 10 µM; actives 0.052% (n = 350,000); PDI insulin aggregation turbidity, A650, 90 min;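 active = mean inhibition across replicates of 30% or more, whatever share of single replicates reach that level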
FGF22 binding-1: shifts melting point of recombinant human FGF22; AID 651658; activity (Tm shift, normalised), % at 9.99 µM; recombinant FGF22 thermal shift, SYPRO orange fluorescence; percent of sucrose octasulfate shift, DMSO zero; Q9HCT0; actives 1.5% (n = 340,000);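 active = mean Tm shift, scaled 0 neutral to 100 positive control, at about 1.3% or above, every replicate too, limit read from the data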
PglD DTNB: PglD (C. jejuni) enzyme inhibition. purified PglD enzyme, DTNB colorimetric CoA detection. inhibition, % at 12.5 µM. actives 0.098% (n = 360,000); in the data active = inhibition above about 16%, passing the limit was not always enough
FGF22 binding-2: binds human FGF22 shifting its melting temperature | actives 2% (n = 1,000) | AID 720646 | thermal shift activity, °C (ΔTm) at 38 µM | recombinant FGF22 thermal shift, SYPRO orange fluorescence | shares compounds with FGF22 binding-1;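 active = fitted rise in melting shift crosses a set limit at or below the top valid dose tested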
FGF22 TSA DP: binders of human FGF22 by thermal shift. Tm shift (activity), % at 38 µM. Thermal shift assay, SYPRO orange, melting temperature shift. shares compounds with FGF22 binding-1. 50 tested, under 10 active;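 active = compounds whose fitted dose curve of melting temperature shift rises past a set threshold within the tested doses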
TSA no protein: compound-only SYPRO artifact for FGF22 binders; AC50, µM (doses to about 38 µM); actives 2% (n = 1,000); compound-only SYPRO orange thermal shift counter-screen, no protein; shares compounds with FGF22 binding-1;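 active = rising signal whose fitted curve reaches the 0.54 level within the top valid dose, showing a melting point, actives reach about 13 µM in these data; inactive = the rest, including activity in the opposite direction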; also: value is where the raw curve crosses a fixed level and not half-maximal
* hit, by the source's call; i = inactive; nt = no result; [ ] = dose if it differs, or a comment. This is a sample that favours compounds with a hit; in the whole collection about 1.9% have one here.

SMILES	UUG fidelity	ARNT TACC3 PPI	ERp5 inh	PDI inh	FGF22 binding-1	PglD DTNB	FGF22 binding-2	TSA no protein	others
CN(CC(=O)Nc1ccccc1Cl)C(=O)COC(=O)c1ccc(-c2ccc(O)cc2)cc1	-4	-5	1	13	0	0	nt	nt
Cc1ccc(C(=O)n2nc(-c3cccnc3)nc2N)cc1	-17	-13	nt	-2	nt	-1	nt	nt
Nc1nc(-c2cccnc2)nn1C(=O)c1ccc(F)cc1	-3	0	3	-5	1.7*	1	0.22	i
C/C=C/c1ccc2c(c1)O[C@@H](CN(C)C(=O)Cc1ccccc1)[C@@H](C)CN([C@@H](C)CO)S2(=O)=O	10	-6	-2	nt	0	0	nt	nt
CC(Oc1ccc(Br)cc1)C(=O)NC1CCN(Cc2ccccc2)CC1 (centres undefined)	-11	-3	14	-2	nt	2	nt	nt
CC(C)Oc1ccc(C(=O)NC2CCN(Cc3ccccc3)CC2)cc1	11	-1	1	5	6.6*	0	0.047	i
COCC(=O)N1[C@H](CO)[C@@H](c2ccccc2)C12CN(C(=O)c1cccnc1)C2	nt	nt	2	nt	0	nt	nt	nt
Cc1ccc(S(=O)(=O)N2C[C@@H](O)COC[C@@H]3O[C@@H](CC(=O)NCc4ccc(Cl)c(Cl)c4)CC[C@H]32)cc1	9	8	-1	nt	1.4*	-1	0.1[42 µM]	i	FGF22 TSA DP=0
Cc1ccc(S(=O)(=O)N2C[C@H](O)COC[C@@H]3O[C@H](CC(=O)NCc4ccc(Cl)c(Cl)c4)CC[C@H]32)cc1	15	6	-4	nt	0	1	nt	nt
O=C(C[C@@H]1CC[C@H]2[C@@H](COC[C@@H](O)CN2S(=O)(=O)c2cccc(F)c2)O1)Nc1ccccc1	nt	-14	nt	nt	2.3*	2	-1.1	i
COc1cccc(S(=O)(=O)N2C[C@@H](O)COC[C@@H]3O[C@@H](CC(=O)Nc4ccccc4)CC[C@H]32)c1	nt	-3	1	nt	1.3*	3	-0.24[42 µM]	i
O=C(C[C@H]1CC[C@@H]2[C@H](COC[C@H](O)CN2S(=O)(=O)c2cccc(Cl)c2)O1)Nc1ccccc1	7	-7	5	nt	1.4*	-2	0.041[42 µM]	i	FGF22 TSA DP=0
Cc1cccc(S(=O)(=O)N2C[C@H](O)COC[C@@H]3O[C@@H](CC(=O)Nc4ccccc4)CC[C@H]32)c1	nt	-6	-2	nt	0	7	nt	nt
C/C=C/c1ccc([C@@H]2[C@@H](CO)N(C(=O)c3cnccn3)C23CN(C(C)=O)C3)cc1	nt	nt	3	nt	0	nt	nt	nt
COCC(=O)N1C[C@@H](C)[C@H](OC)CN(C)C(=O)c2ccc(NC(=O)NC(C)C)cc2OC[C@@H]1C	1	-3	-5	nt	2.2*	1	0.032[42 µM]	i
CO[C@@H]1CN(C)C(=O)c2cc(NC(=O)NC(C)C)ccc2OC[C@@H](C)N(C)C[C@@H]1C	-5	0	2	nt	37*	1	-0.047	i
COCC(=O)N1C[C@H](C)[C@@H](OC)CN(C)C(=O)c2ccc(NC(=O)NC(C)C)cc2OC[C@H]1C	3	-2	1	nt	0	-2	nt	nt
CCn1c(O)c(C=NCc2ccccc2)sc1=S	3	-1	-2	12	2.9*	-19	0.11	i
CCCn1c(O)c(C=Nc2ccccc2)sc1=S	-10	3	1	24	0	0	nt	nt
COc1ccc(C(C)(NC(C)=O)c2nc(-c3ccncc3)cs2)cc1 (centres undefined)	12	nt	1	0	18*	2	0.046	i
CC(C)NC(=O)N(C)C[C@H]1Oc2cc(C#C[C@@H](C)O)ccc2S(=O)(=O)N([C@H](C)CO)C[C@@H]1C	nt	4	-2	nt	0	2	nt	nt
O=C(Nc1ccc2c(c1)OCO2)c1ccc(NC2CC2)c([N+](=O)[O-])c1	0	-20	-1	11	1.6*	2	0.6	i

Among those listed so far, these contain fluorine:
SMILES	UUG fidelity	ARNT TACC3 PPI	ERp5 inh	PDI inh	FGF22 binding-1	PglD DTNB	FGF22 binding-2	TSA no protein	others
Nc1nc(-c2cccnc2)nn1C(=O)c1ccc(F)cc1	-3	0	3	-5	1.7*	1	0.22	i
O=C(C[C@@H]1CC[C@H]2[C@@H](COC[C@@H](O)CN2S(=O)(=O)c2cccc(F)c2)O1)Nc1ccccc1	nt	-14	nt	nt	2.3*	2	-1.1	i
